{
  "sequences": {"note": "The chains behind the UniProt entries cited, without tags or fusion partners. Where a name states a change or a piece, a line headed by the entry shows the natural chain unless it says otherwise.", "UniProt P20292": "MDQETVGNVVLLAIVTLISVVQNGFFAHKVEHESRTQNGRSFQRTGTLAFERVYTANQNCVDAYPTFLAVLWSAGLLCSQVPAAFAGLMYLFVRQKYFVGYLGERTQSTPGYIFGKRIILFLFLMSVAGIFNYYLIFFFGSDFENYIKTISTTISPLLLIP"},
  "source": "ChEMBL document CHEMBL1921749",
  "about": "“5-Lipoxygenase-activating protein (FLAP) inhibitors. Part 4: development of 3-[3-tert-butylsulfanyl-1-[4-(6-ethoxypyridin-3-yl)benzyl]-5-(5-methylpyridin-2-ylmethoxy)-1H-indol-2-yl]-2,2-dimethylpropionic acid (AM803), a potent, oral, once daily FLAP inhibitor” (J Med Chem, 2011)",
  "key": {"[1]": {"molecular_target": "T1, Arachidonate 5-lipoxygenase-activating protein (Homo sapiens, UniProt P20292)", "assay": "Inhibition of FLAP in human peripheral leukocytes assessed as inhibition of calcium ionophore A23187-induced LTB4 production after 10 mins by ELISA", "format": "cell-based"}, "[2]": {"molecular_target": "T1, Arachidonate 5-lipoxygenase-activating protein", "assay": "Displacement of [3H]-3-[5-(pyrid-2-ylmethoxy)-3-tert-butylthio-1-benzylindol-2-yl]-2,2-dimethylpropionic acid from FLAP in human polymorphonuclear cell membranes after 1 hr by scintillation counting"}, "[3]": {"molecular_target": "T1, Arachidonate 5-lipoxygenase-activating protein", "assay": "Inhibition of FLAP in human whole blood assessed as inhibition of calcium ionophore A23187-induced LTB4 production preincubated for 15 mins by ELISA"}, "[4]": {"molecular_target": "T1, Arachidonate 5-lipoxygenase-activating protein", "assay": "Inhibition of FLAP in human whole blood assessed as inhibition of calcium ionophore A23187-induced LTB4 production preincubated for 5 hrs by ELISA"}},
  "data": [
    {"compound": "Cc1ccc(COc2ccc3c(c2)c(SC(C)(C)C)c(CC(C)(C)C(=O)O)n3Cc2ccc(-c3ccc(F)cn3)cc2)nc1", "values": [
      {"measurement": "IC50", "setting": "[1]", "value": 0.4, "unit": "nM"},
      {"measurement": "IC50", "setting": "[2]", "value": 1.5, "unit": "nM"},
      {"measurement": "IC50", "setting": "[3]", "value": 194, "unit": "nM"},
      {"measurement": "IC50", "setting": "[4]", "value": 75, "unit": "nM"}
    ]}
  ]
}
